# Binding of CDR-mutated scFvs to a peptide of the spike HR2 region

Data: MIT Lincoln Laboratory AlphaSeq set, Engelhart et al. 2022, doi:10.1038/s41597-022-01779-4, as distributed in FLAb.

All variants were tested on one target, the spike HR2 peptide PDVDLGDISGINAS (SARS-CoV-2).

The variants keep the light chain, the linker and the frameworks of Ab-14 (scFv order VH, the linker GGGGSGGGGSGGGGS, VL).
VH: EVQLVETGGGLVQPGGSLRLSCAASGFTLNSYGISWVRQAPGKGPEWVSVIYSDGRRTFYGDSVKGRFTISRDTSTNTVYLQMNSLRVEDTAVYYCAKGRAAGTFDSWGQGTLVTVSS
VL: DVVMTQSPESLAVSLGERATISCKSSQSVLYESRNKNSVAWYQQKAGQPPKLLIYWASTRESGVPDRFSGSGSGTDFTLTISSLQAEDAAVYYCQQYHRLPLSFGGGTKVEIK

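The starting antibody came from a phage panning campaign against this peptide. Variants in AAYL49 differ from the parent at up to three CDR positions; double and triple changes were sampled at random. Affinity was read by AlphaSeq, a pooled yeast mating assay with surface-displayed partners. After mating in shaken culture at 30 °C for 16 h, diploids were selected and their barcode pairs sequenced. Scores were corrected for input abundance and mapped to Kd with protein pairs of known affinity run in the same pool. Each pool was mated in three replicate cultures.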

Positions count from residue 1 of the parent VH; S35H puts H in place of S.
This list gathers variants with a substitution at S35 (VH, numbered from residue 1).
Each Kd is an estimate from the mating assay, the geometric mean of the replicates in which the pair was seen; lower is stronger.
"no signal" means that the variant was in the library but no mating with the target was seen in any replicate; the authors take this as a sign of poor binding, and no number exists.
Entries are sorted by rising average, undetected variants last.
Empty control strains, which show no peptide, gave a signal in 15% of pairings with library AAYL49; the median was 11 µM and 95% of these signals were weaker than 680 nM. No background was subtracted.

changes,apparent Kd,replicates with signal
S35H,54 nM,3/3
S35R R56V A102K,200 nM,1/3
S35N Y52T A102H,860 nM,1/3
G26M S35H T58A,860 nM,2/3
S35C I51Q A101V,1.3 µM,1/3
S35W G55H G99W,1.5 µM,2/3
S35T V50M V64S,2.2 µM,1/3
S35W V50P Y60H,2.4 µM,1/3
L29D S35G G61C,4.8 µM,1/3
S35E T58H A102D,4.8 µM,1/3
S35W S63W K65D,7.8 µM,2/3
Y32H S35I,9.4 µM,1/3
S35C T58Q V64W,13 µM,1/3
I34T S35N D62C,14 µM,1/3
S35P I51V T58W,16 µM,1/3
G26C S35T Y52D,16 µM,1/3
S35R R56K R57Y,17 µM,1/3
F27E S35D G99K,20 µM,1/3
S35V V64R S107L,21 µM,1/3
Y32D S35I A101Y,24 µM,2/3
Y32D S35A,26 µM,1/3
G26C S35Q F105W,34 µM,2/3
S35C I51H F105M,49 µM,1/3
G26E S35D R56V,64 µM,1/3
I34Y S35W R100W,110 µM,3/3
Y32P S35T T104R,120 µM,3/3
S35M S53K V64T,180 µM,2/3
S35D I51C K65L,180 µM,3/3
L29R Y32W S35K,260 µM,3/3
S35H R57M K65G,950 µM,1/3
S35A Y52G G103R,1.7 mM,1/3
I34H S35F D54G,no signal,0/3
S35W,no signal,0/3
S35E I51H Y60D,no signal,0/3
G33V I34F S35Y,no signal,0/3
S35V S63M G99A,no signal,0/3
S35F G103F D106T,no signal,0/3
S35P D62L T104C,no signal,0/3
N30L S35Y V50E,no signal,0/3
S35I,no signal,0/3
T28H I34H S35Q,no signal,0/3
F27H S35E D106G,no signal,0/3
S35Q I51V,no signal,0/3
S35L V50S S107N,no signal,0/3
S35M G99S R100V,no signal,0/3
G26I I34R S35L,no signal,0/3
S35M A102R T104F,no signal,0/3
S35I G55N D106K,no signal,0/3
S35T F59S,no signal,0/3
N30W S35N S107F,no signal,0/3
S35P A101D F105I,no signal,0/3
N30K S35V,no signal,0/3
S35T G103W D106W,no signal,0/3
Y32D S35K D62M,no signal,0/3
S35I Y52E S63F,no signal,0/3
S35L F105H S107E,no signal,0/3
L29R N30P S35T,no signal,0/3
T28Q S31F S35A,no signal,0/3

The closing 4 entries, repeated:

{"changes": "S35I Y52E S63F", "apparent Kd": "no signal", "replicates with signal": "0/3"}
{"changes": "S35L F105H S107E", "apparent Kd": "no signal", "replicates with signal": "0/3"}
{"changes": "L29R N30P S35T", "apparent Kd": "no signal", "replicates with signal": "0/3"}
{"changes": "T28Q S31F S35A", "apparent Kd": "no signal", "replicates with signal": "0/3"}

For reference, the parent read 4.4 nM as the reference entry and 13 µM (one replicate of three) as a member of this library.